“Also recorded” adds a separate entry of the source.

Holding throughout (format): cell-based, human
In assay [1] the test system is U-87 spheroids. The assay is described as follows: 3D culture (cancer spheroids), U-87.
Assay [2] relates to MDA-MB-231 spheroids. The experiment in a line: 3D culture (cancer spheroids), MDA-MB-231.
Assay [3] concerns PPC-1 spheroids. The experiment in a line: 3D culture (cancer spheroids), PPC-1.

`NS(=O)(=O)c1ccc(O)c(N=Cc2ccc([N+](=O)[O-])s2)c1` [Compound 9, 4-Hydroxy-3-(((5-nitrothiophen-2-yl)methylene)amino)benzenesulfonamide]: in assay [1], the “spheroid growth / size, U-87” value is listed as “became more diffuse” and the “viability of cells in spheroids, U-87” value is “reduced the viability; also recorded: strongest effect on cell viability reduction”. Also, in assay [2], the “spheroid growth / size, MDA-MB-231” value is recorded as “became smaller compared to the control” and the “viability of cells in spheroids, MDA-MB-231” value is on record as “reduced the viability; also recorded: strongest effect on cell viability reduction”. In assay [3], the “spheroid growth / size, PPC-1” value is recorded as “became more diffuse” and the “viability of cells in spheroids, PPC-1” value is “reduced the viability; also recorded: strongest effect on cell viability reduction”.

The values above are taken from article PMC12249541, “Novel Derivatives of 3-Amino-4-hydroxy-benzenesulfonamide: Synthesis, Binding to Carbonic Anhydrases, and Activity in Cancer Cell 2D and 3D Cultures” (International Journal of Molecular Sciences, 2025).
